Reference: publication PMC5618341, “Controlled inhibition of methyltransferases using photoswitchable peptidomimetics: towards an epigenetic regulation of leukemia” (Chemical Science, 2017)
Values joined by “and” are separate entries in the source; they are usually repeats but may differ in a detail not shown here. Equal values may be shown once. Starred links: 1 amine or outer side, 2 acyl side, 3 side chain; linkers in the order of their positions; H or OH if unused. Non-standard residues stand in square brackets, D forms with d. Residues, ends and D or L forms follow the SMILES beside them. AMPB = O=C(c1ccc(N=Nc2ccc(CN[*:1])cc2)cc1)[*:2]; Ahx = NCCCCCC(=O)O; βAla = NCCC(=O)O

Molecular target: T1, WDR5Δ23 (Homo sapiens, UniProt P61964)
T1 construct: His6-SUMO (N, cleaved yes); made in house; host or cells: E. coli DH5α (so in the source)
Experiment: Fluorescence polarization (FP)-based competitive binding assay
Conditions: peptide irradiated at 366 nm (cis isomer), 72 nM WDR5Δ23, 20 nM tracer 22; for Ki: read-out: Ki, irradiation at 366 nm (cis)

CC(C)[C@H](NC(=O)[C@H](CCC(=O)O)NC(=O)[C@H](C)NC(=O)[C@H](CCCNC(=N)N)NC(=O)[C@H](C)NC(=O)[C@@H](N)CO)C(=O)N[C@@H](Cc1c[nH]cn1)C(=O)NCc1ccc(N=Nc2ccc(C(=O)N[C@@H](CCCNC(=N)N)C(=O)N[C@@H](CCCCN)C(=O)N[C@@H](CO)C(N)=O)cc2)cc1 [peptide 10, H2N-SARAEVHXRKS-CONH2] (H-SARAEVH[AMPB]RKS-NH2)
IC50: 1490 ± 1300 nM | Ki: 33.3 ± 4.2 nM

CC(=O)N[C@@H](C)C(=O)N[C@@H](CCCNC(=N)N)C(=O)N[C@@H](C)C(=O)NCc1ccc(N=Nc2ccc(C(=O)N[C@H](C(=O)N[C@@H](Cc3c[nH]cn3)C(=O)N[C@@H](CC(C)C)C(=O)N[C@@H](CCCNC(=N)N)C(=O)N[C@@H](CCCCN)C(=O)N[C@@H](CO)C(N)=O)C(C)C)cc2)cc1 [peptide 14, Ac-ARAXVHLRKS-CONH2] (Ac-ARA[AMPB]VHLRKS-NH2)
Ki: 4.25 ± 0.83 nM

CC(C)C[C@H](NC(=O)[C@H](Cc1c[nH]cn1)NC(=O)c1ccc(N=Nc2ccc(CNC(=O)[C@H](CCC(=O)O)NC(=O)[C@H](C)NC(=O)[C@H](CCCNC(=N)N)NC(=O)[C@H](C)NC(=O)[C@@H](N)CO)cc2)cc1)C(=O)N[C@@H](CCCNC(=N)N)C(=O)N[C@@H](CCCCN)C(=O)N[C@@H](CO)C(N)=O [peptide 8, H2N-SARAEXHLRKS-CONH2] (H-SARAE[AMPB]HLRKS-NH2)
IC50: 461 ± 140 nM | Ki: 9.1 ± 2.2 nM

CC(C)C[C@H](NC(=O)c1ccc(N=Nc2ccc(CNC(=O)[C@@H](NC(=O)[C@H](CCC(=O)O)NC(=O)[C@H](C)NC(=O)[C@H](CCCNC(=N)N)NC(=O)[C@H](C)NC(=O)[C@@H](N)CO)C(C)C)cc2)cc1)C(=O)N[C@@H](CCCNC(=N)N)C(=O)N[C@@H](CCCCN)C(=O)N[C@@H](CO)C(N)=O [peptide 9, H2N-SARAEVXLRKS-CONH2] (H-SARAEV[AMPB]LRKS-NH2)
IC50: 2580 ± 23 nM | Ki: 39.7 ± 0.35 nM

CC(C)C[C@H](NC(=O)[C@H](Cc1c[nH]cn1)NC(=O)[C@@H](NC(=O)c1ccc(N=Nc2ccc(CNC(=O)[C@H](C)NC(=O)[C@H](CCCNC(=N)N)NC(=O)[C@H](C)NC(=O)[C@@H](N)CO)cc2)cc1)C(C)C)C(=O)N[C@@H](CCCNC(=N)N)C(=O)N[C@@H](CCCCN)C(=O)N[C@@H](CO)C(=O)N[C@@H](CCCNC(=N)N)C(=O)N[C@@H](CCCNC(=N)N)C(=O)N[C@@H](CCCNC(=N)N)C(=O)N[C@@H](CCCNC(=N)N)C(=O)N[C@@H](CCCNC(=N)N)C(=O)N[C@@H](CCCNC(=N)N)C(=O)N[C@@H](CCCNC(=N)N)C(=O)N[C@@H](CCCNC(=N)N)C(N)=O [peptide 16, H2N-SARA-AMPB-VHLRKS-R8-NH2] (H-SARA[AMPB]VHLRKSRRRRRRRR-NH2)
IC50: 192 ± 10 nM | Ki: 2.05 ± 0.17 nM

CC(C)C[C@H](NC(=O)[C@H](Cc1c[nH]cn1)NC(=O)[C@@H](NC(=O)c1ccc(N=Nc2ccc(CNC(=O)[C@H](C)NC(=O)[C@H](CCCNC(=N)N)NC(=O)[C@H](C)NC(=O)[C@@H](N)CO)cc2)cc1)C(C)C)C(=O)N[C@@H](CCCNC(=N)N)C(=O)N[C@@H](CCCCN)C(=O)N[C@@H](CO)C(N)=O [peptide 7, H2N-SARAXVHLRKS-CONH2] (H-SARA[AMPB]VHLRKS-NH2)
IC50: 475 ± 88 nM | Ki: 6.5 ± 1.4 nM

CC(C)C[C@H](NC(=O)[C@H](Cc1c[nH]cn1)NC(=O)c1ccc(N=Nc2ccc(CNC(=O)[C@H](C)NC(=O)[C@H](CCCNC(=N)N)NC(=O)[C@H](C)NC(=O)[C@@H](N)CO)cc2)cc1)C(=O)N[C@@H](CCCNC(=N)N)C(=O)N[C@@H](CCCCN)C(=O)N[C@@H](CO)C(N)=O [peptide 13, H2N-SARAXHLRKS-CONH2] (H-SARA[AMPB]HLRKS-NH2)
IC50: 664 ± 80 nM | Ki: 9.47 ± 1.2 nM

CC(C)C[C@H](NC(=O)[C@H](Cc1c[nH]cn1)NC(=O)[C@@H](NC(=O)[C@H](CCC(=O)O)NC(=O)[C@H](C)NC(=O)[C@H](CCCNC(=N)N)NC(=O)[C@H](C)NC(=O)[C@@H](N)CO)C(C)C)C(=O)N[C@@H](CCCNC(=N)N)C(=O)NCc1ccc(N=Nc2ccc(C(=O)N[C@@H](CO)C(N)=O)cc2)cc1 [peptide 12, H2N-SARAEVHLRXS-CONH2] (H-SARAEVHLR[AMPB]S-NH2)
IC50: 2640 ± 160 nM | Ki: 40.6 ± 2.5 nM

CC(=O)N[C@@H](C)C(=O)N[C@@H](CCCNC(=N)N)C(=O)N[C@H](C(=O)NCc1ccc(N=Nc2ccc(C(=O)N[C@H](C(=O)N[C@@H](Cc3ccc(O)cc3)C(N)=O)C(C)C)cc2)cc1)[C@@H](C)O [peptide 15, Ac-ARTXVY-CONH2] (Ac-ART[AMPB]VY-NH2)
IC50: 185 ± 20 nM | Ki: 2.07 ± 0.24 nM

CC(C)C[C@H](NC(=O)[C@H](Cc1c[nH]cn1)NC(=O)[C@@H](NC(=O)[C@H](CCC(=O)O)NC(=O)[C@H](C)NC(=O)[C@H](CCCNC(=N)N)NC(=O)[C@H](C)NC(=O)[C@@H](N)CO)C(C)C)C(=O)NCc1ccc(N=Nc2ccc(C(=O)N[C@@H](CCCCN)C(=O)N[C@@H](CO)C(N)=O)cc2)cc1 [peptide 11, H2N-SARAEVHLXKS-CONH2] (H-SARAEVHL[AMPB]KS-NH2)
IC50: 4540 ± 390 nM | Ki: 70.4 ± 6.6 nM

CC(C)C[C@H](NC(=O)[C@H](Cc1c[nH]cn1)NC(=O)[C@@H](NC(=O)c1ccc(N=Nc2ccc(CNC(=O)[C@H](C)NC(=O)[C@H](CCCNC(=N)N)NC(=O)[C@H](C)NC(=O)[C@@H](N)CO)cc2)cc1)C(C)C)C(=O)N[C@@H](CCCNC(=N)N)C(=O)N[C@@H](CCCCN)C(=O)N[C@@H](CO)C(=O)N[C@@H](CCCNC(=N)N)C(=O)NCCCCCC(=O)N[C@@H](CCCNC(=N)N)C(=O)N[C@@H](CCCNC(=N)N)C(=O)NCCCCCC(=O)N[C@@H](CCCNC(=N)N)C(=O)N[C@@H](CCCNC(=N)N)C(=O)NCCCCCC(=O)N[C@@H](CCCNC(=N)N)C(=O)N[C@@H](CCCNC(=N)N)C(=O)NCCCCCC(=O)N[C@@H](CCCNC(=N)N)C(=O)NCCCCCC(=O)NCCC(N)=O [peptide 17, H2N-SARA-AMPB-VHLRKS-(RahxR)4RAhxB-NH2] (H-SARA[AMPB]VHLRKSR[Ahx]RR[Ahx]RR[Ahx]RR[Ahx]R[Ahx][βAla]-NH2)
IC50: 227 ± 24 nM | Ki: 2.6 ± 0.36 nM

CC(C)C[C@H](NC(=O)[C@H](Cc1c[nH]cn1)NC(=O)[C@@H](NC(=O)[C@H](CCC(=O)O)NC(=O)[C@H](C)NC(=O)[C@H](CCCNC(=N)N)NC(=O)c1ccc(N=Nc2ccc(CNC(=O)[C@@H](N)CO)cc2)cc1)C(C)C)C(=O)N[C@@H](CCCNC(=N)N)C(=O)N[C@@H](CCCCN)C(=O)N[C@@H](CO)C(N)=O [peptide 5, H2N-SXRAEVHLRKS-CONH2] (H-S[AMPB]RAEVHLRKS-NH2)
IC50: 24900 ± 5700 nM | Ki: 433 nM and 432 nM
